Yeast mating assay 2: variants of the scFv Ab-95

From the AlphaSeq antibody data of Engelhart et al. 2022 (doi:10.1038/s41597-022-01779-4), copy in the FLAb collection.

The target is the same throughout: PDVDLGDISGINAS, from the HR2 region of SARS-CoV-2 spike.

Ab-95 is the parent antibody, in scFv form: VH, then a (GGGGS)3 linker, then VL. The heavy chain is unchanged in all variants.
VH: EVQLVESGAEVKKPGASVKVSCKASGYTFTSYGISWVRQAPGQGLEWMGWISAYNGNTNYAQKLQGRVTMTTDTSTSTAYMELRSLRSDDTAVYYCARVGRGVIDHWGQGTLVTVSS
VL: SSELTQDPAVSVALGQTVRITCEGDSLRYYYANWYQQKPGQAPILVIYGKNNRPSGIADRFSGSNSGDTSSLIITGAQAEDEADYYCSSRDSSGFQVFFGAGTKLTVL

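The parent was found by panning a naive human phage display library on the peptide. AAYL52 was designed without a model: most single CDR substitutions and a random sample of double and triple ones. Affinity was read by AlphaSeq, a pooled yeast mating assay with surface-displayed partners. The frequency of each diploid, read from paired DNA barcodes, reflects how well the two displayed proteins bind. The ratio of observed to expected reads was calibrated, replicate by replicate, on BCL2-family standards whose Kd was known from biolayer interferometry. The assay was run in three technical replicates.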

The parent's light chain CDRs are EGDSLRYYYAN, GKNNRPS, SSRDSSGFQVF; each variant's own CDRs replace them letter for letter.
All variants listed here change G94 of the VL, counted from its first residue.
Kd is apparent (estimated from mating counts) and averaged on the log scale over replicates with a signal. Smaller is tighter.
An entry "nd" has no value in the source: the pair was not observed among the diploids in any replicate. This suggests poor binding but is not conclusive.
In this assay the parent's reference entry averaged 200 nM; its copy inside this library read 180 nM.

Variant EGDSLRYYYAN | GKNRRSS | SSRDSSYFQVF gave 2.1 µM (3 of 3 replicates). With EGDTLRYYYAN | GKNNLPS | SSRDSSEFQVF the result was nd (0 of 3 replicates). Variant EGDSLRYYYAV | GKNNRPS | GSRDSSRFQVF gave 22 µM (2 of 3 replicates). Variant EGDSLRYYPDN | GKNNRPS | SSRDSSDFQVF gave 820 nM (1 of 3 replicates). For ELDSLRYYYAN | GKNNAPS | SSRDSSTFQVF, the assay gave nd (0 of 3 replicates). Variant EGDSIRYYYAN | GKNLRPS | SSRDSSYFQVF showed 7.2 µM (1 of 3 replicates). With EGDDLRYYYAN | GGNNRPS | SSRDSSSFQVF the result was 2.2 µM (3 of 3 replicates).

Variant EGDSLRYYYAN | GKNNRPS | SSRDSSIDQVF showed 6.3 µM (2 of 3 replicates). For EGDLLRYYYAN | GKNNRPS | SSRDSSDFQAF, the assay gave 3.0 µM (2 of 3 replicates). Variant EGDIVRYYYAN | GKNNRPS | SSRDSSEFQVF showed 21 µM (2 of 3 replicates). For EGDSLRYYIAN | GKNVRPS | SSRDSSPFQVF, the assay gave 580 µM (1 of 3 replicates). Variant EGDSLRPYFAN | GKNNRPS | SSRDSSQFQVF gave 940 nM (1 of 3 replicates). Variant EGDSLRYYYAN | WKNNRPT | SSRDSSWFQVF showed nd (0 of 3 replicates). Variant EGDSLRYYSAN | GKNNRPS | SSRDSSEFQVR showed 23 µM (1 of 3 replicates).

Variant EIDSLRYYYAN | GKNERPS | SSRDSSAFQVF showed 4.9 µM (3 of 3 replicates). For EGSSVRYYYAN | GKNNRPS | SSRDSSIFQVF, the assay gave nd (0 of 3 replicates). Variant EGDSLRYMYAN | GKNNRPS | SSRDSSCRQVF showed 240 nM (3 of 3 replicates). Variant RGDSLRYYYTN | GKNNRPS | SSRDSSDFQVF gave 750 nM (3 of 3 replicates). Variant EGDSLRYYYPN | GMNNRPS | SSRDSSEFQVF gave 77 nM (3 of 3 replicates). Variant EGDSLRYYYAN | GKNNRPS | SSMDSSEFKVF gave 38 µM (2 of 3 replicates). Variant EGSSLRYYYAN | GKNNRPS | SSRDSSWSQVF gave 47 nM (3 of 3 replicates).

With EGDSLRYYYAN | MKNNRPS | SSRDSSWNQVF the result was 3.8 µM (2 of 3 replicates). With EGDSMRYYYAN | GKKNRPS | SSRDSSWFQVF the result was nd (0 of 3 replicates). Variant EGDSLRYEYAN | GKNNRPS | SSRDSGMFQVF gave 100 nM (3 of 3 replicates). For EGASLRWYYAN | GKNNRPS | SSRDSSRFQVF, the assay gave 3.5 µM (3 of 3 replicates). For EGDSLSYYYAN | GRNNRPS | SSRDSSWFQVF, the assay gave 1.4 µM (3 of 3 replicates). Variant EGDSLRYYYAN | GKNNRPS | SSRDSSEFQGF gave 1.6 µM (2 of 3 replicates). Variant EGDSLWYYYAN | DKNNRPS | SSRDSSTFQVF showed 2.8 µM (1 of 3 replicates).

For EGDSLRYYYAI | GGNNRPS | SSRDSSWFQVF, the assay gave 16 µM (1 of 3 replicates). Variant EWDSLRYYYAY | GKNNRPS | SSRDSSIFQVF showed 9.0 µM (1 of 3 replicates). For EGDSTRYYYAN | GKNNRPS | SSRDSSQFVVF, the assay gave 9.2 µM (2 of 3 replicates). Variant EGDSLRYYYAN | GKNNDPS | SSRDSGWFQVF gave 14 µM (2 of 3 replicates). With EGDSLIYYIAN | GKNNRPS | SSRDSSEFQVF the result was 3.5 µM (1 of 3 replicates). Variant EGDSLRYYYTN | GMNNRPS | SSRDSSIFQVF showed nd (0 of 3 replicates). With EGDSLRYYYAN | GKNNRPS | SSRPSSFFQVA the result was 4.5 µM (2 of 3 replicates).

For EGYSLRYYYAN | GKNNRPS | SSRDSSTFQVC, the assay gave 5.1 µM (1 of 3 replicates). With EGDSLRYIYAN | GKNNRPS | SSRDSSEFQPF the result was 3.6 µM (3 of 3 replicates). For EGDSLRYYYAN | GKNNRPC | SSRDSIKFQVF, the assay gave 25 µM (1 of 3 replicates). For EGDSLRYYYAN | GKNNRPS | SSKDSSAFQVL, the assay gave 160 nM (3 of 3 replicates). With EGDSLRYYYCN | GKNNRPS | SSRDSSYKQVF the result was 1.6 µM (3 of 3 replicates). For EGDSLRYYYAN | GKNNRPS | YSRDISIFQVF, the assay gave 240 nM (3 of 3 replicates). Variant EGDSLRYYYAN | GKFNRPS | SSRDSSDFFVF showed 7.3 µM (2 of 3 replicates).

With EGDSLRYYYAN | GKNNRGS | SSRHSSMFQVF the result was 2.1 µM (3 of 3 replicates). With EGDSLRYYYGN | AKNNRPS | SSRDSSPFQVF the result was 2.5 µM (2 of 3 replicates). With EGDSFRYYYAN | GKNNRPS | SSRDSSDWQVF the result was 1.4 µM (2 of 3 replicates). Variant EGDSLRYYYAN | GKNLRPN | SSRDSSKFQVF showed 35 µM (2 of 3 replicates). Variant EGDSLRYYYAA | GKNNRPS | SSRDSSTFQVF showed nd (0 of 3 replicates). Variant EGDSLRYYYAN | GKNNMPS | SSRDSSWFGVF showed 5.5 µM (3 of 3 replicates).

Nonspecific signal, from three strains lacking the peptide, appeared in 28% of pairings of library AAYL52, centred on 8.2 µM (5% of these signals below 800 nM); values are not corrected for it.